Laboratory results: the OPERA property sets (Mansouri et al. 2018)

Settings: for ready biodegradability / log10 vapour pressure (mmHg) / melting point / boiling point / log10 Henry constant (atm·m³/mol) / log10 Koc (L/kg): experimental values compiled from the literature

Compound	log10 vapour pressure (mmHg)	melting point	boiling point	further results
CC(=O)OOC(C)(C)C	–	–	–	ready biodegradability: not readily biodegradable
O=P(Cl)(Cl)Oc1ccccc1	-1.28	–	–	–
CCC(CO[N+](=O)[O-])(CO[N+](=O)[O-])CO[N+](=O)[O-]	–	51.5 °C	–	–
CC([N+](=O)[O-])[N+](=O)[O-]	–	–	186 °C	–
O=[N+]([O-])c1cc([N+](=O)[O-])cc([N+](=O)[O-])c1	-5.19	122 °C	315 °C	–
O=[N+]([O-])c1cc([N+](=O)[O-])c2onnc2c1	–	158 °C	–	–
Cc1c([N+](=O)[O-])cc([N+](=O)[O-])c(C)c1[N+](=O)[O-]	–	184 °C	–	–
O=[N+]([O-])OC[C@@H](O[N+](=O)[O-])[C@@H](O[N+](=O)[O-])[C@H](O[N+](=O)[O-])[C@@H](CO[N+](=O)[O-])O[N+](=O)[O-]	–	107 °C	–	–
COC(=O)C(O)(c1ccccc1)c1ccccc1	–	75.8 °C	–	–
CCOP(C)(=S)OCC	–	-84.4 °C	199 °C	–
Cc1cc([N+](=O)[O-])c(O)c([N+](=O)[O-])c1	–	–	–	log10 Henry constant (atm·m³/mol): -7.28
CC(C)O[N+](=O)[O-]	1.53	–	100 °C	log10 Henry constant (atm·m³/mol): -2.79
O=[N+]([O-])c1ccc([N+](=O)[O-])cc1	–	174 °C	297 °C	ready biodegradability: not readily biodegradable
O=[N+]([O-])c1ccc(O)cc1[N+](=O)[O-]	–	134 °C	–	–
O=[N+]([O-])OCCOCCO[N+](=O)[O-]	-2.23	-11.3 °C	–	–
Cc1c([N+](=O)[O-])cc([N+](=O)[O-])cc1[N+](=O)[O-]	-5.1	80.1 °C	–	log10 BCF (fish): 0.99
O=[N+]([O-])c1cc([N+](=O)[O-])c(O)c([N+](=O)[O-])c1	-6.12	122 °C	–	ready biodegradability: not readily biodegradable; log10 BCF (fish): 0.34
O=C1C2CC=CCC2C(=O)N1SC(Cl)(Cl)C(Cl)Cl (stereo not given)	–	–	–	log10 Koc (L/kg): 3.32; ready biodegradability: not readily biodegradable
CC(C)COC(=O)Cl	0.922	–	–	–
CC(C)OP(=O)(F)OC(C)C	-0.237	-82 °C	183 °C	–
CCOC(=O)Cl	1.35	–	–	ready biodegradability: readily biodegradable
Cc1c([N+](=O)[O-])cccc1[N+](=O)[O-]	-3.25	66 °C	300 °C	log10 BCF (fish): 1.34
O=[N+]([O-])OC[C@H](O[N+](=O)[O-])[C@@H](CO[N+](=O)[O-])O[N+](=O)[O-]	–	61 °C	–	–
CCOP(=O)(OCC)N(C)C	–	8.3 °C	232 °C	–
CCO[N+](=O)[O-]	1.81	-94.6 °C	87.2 °C	–

Compound	log10 vapour pressure (mmHg)	melting point	boiling point	further results
O=[N+]([O-])c1ccc([N+](=O)[O-])c(O)c1	-3.91	–	–	–
Cc1ccc([N+](=O)[O-])cc1[N+](=O)[O-]	-3.83	71 °C	300 °C	log10 Henry constant (atm·m³/mol): -7.27; ready biodegradability: not readily biodegradable; log10 BCF (fish): 0.96; log10 biotransformation half-life (days) (fish): -0.22
O=[N+]([O-])OCCO	–	–	–	log10 Henry constant (atm·m³/mol): -7.59
CC[AsH]CC	–	–	105 °C	–
O=[N+]([O-])c1cc([N+](=O)[O-])c(O)c([N+](=O)[O-])c1O	–	176 °C	–	–
Cl.Nc1cc([As](Cl)Cl)ccc1O	–	200 °C	–	–
CC(C)OP(C)(=O)OC(C)C	-0.557	–	–	–
COP(=S)(Cl)OC	-0.301	–	–	–
CC(C)N(CCO)C(C)C	-1.1	-39 °C	190 °C	–
O=[N+]([O-])c1ccc(O)c([N+](=O)[O-])c1O	–	148 °C	–	–
CCCOC(=O)Cl	1.3	–	–	–
O=[N+]([O-])C(Cl)([N+](=O)[O-])[N+](=O)[O-]	–	4.5 °C	–	–
O=C1c2cc([N+](=O)[O-])ccc2-c2c1cc([N+](=O)[O-])cc2[N+](=O)[O-]	–	176 °C	–	–
C[As](=O)([O][Na])[O][Na]	–	–	–	log10 Koc (L/kg): 2.78
Cc1cc([N+](=O)[O-])cc([N+](=O)[O-])c1	-3.39	93 °C	315 °C	–
CCCO[N+](=O)[O-]	1.37	-100 °C	110 °C	log10 Henry constant (atm·m³/mol): -2.9
Cc1ccc([N+](=O)[O-])c([N+](=O)[O-])c1[N+](=O)[O-]	–	112 °C	301 °C	–
O=[N+]([O-])C(Br)([N+](=O)[O-])[N+](=O)[O-]	–	17.5 °C	–	–
CN(C)CCCl	–	–	110 °C	–
CCOP(=S)(CC)Oc1cc(Cl)c(Cl)cc1Cl (stereo not given)	-4.82	–	–	log10 Koc (L/kg): 2.6
O=[N+]([O-])c1cccc([N+](=O)[O-])c1O	–	63.5 °C	–	–
O=[N+]([O-])N1CN([N+](=O)[O-])CN([N+](=O)[O-])CN([N+](=O)[O-])C1	-13.5	–	–	log10 BCF (fish): -0.3
O=[N+]([O-])C(Cl)(Cl)[N+](=O)[O-]	–	–	122 °C	–
C[PH](=O)O	–	-40 °C	163 °C	–
OCCF	1.33	–	–	–
